How the values were obtained:
[1] = system: Madin-Darby bovine kidney (MDBK) cells
Procedure: (§1) Madin-Darby bovine kidney (MDBK) cells were passaged in T-75 flasks for use in the assay. On the day preceding the assay, the cells were trypsinized, pelleted, counted and resuspended at 6×10^4/well in tissue culture medium. Cells were added to 96 well flat bottom plates in a volume of 100 μl per well.
(§2) Interferon was purchased from PBL Biomedical Laboratories (New Brunswick, N.J.) and was in PBS solutions. On the day of testing, the drug stock is diluted in the medium to the desired high concentration and then further diluted in the medium in half log series.
The day following plating of cells, plates are removed from the incubator, and medium is removed and discarded. Drug dilutions are added to appropriate wells of the microtiter plate in a volume of 100 μl per well. […]
The cell viability was evaluated by a dye (XTT) uptake procedure. XTT-tetraolium is metabolized by the mitochontrial enzymes of metabolically active cells to a soluble formazan product, allowing the rapid quantitative analysis of the inhibition of virus-induced cell killing by antiviral test substances. […]
Adhesive plate sealers were used in place of the lids, the sealed plate was inverted several times to mix the soluble formazan product and the plate was read spectrophotometrically at 450 nm (XTT) with a Molecular Devices Vmax plate reader. […]
Combination effects are analyzed statistically by Prichard and Shipman method. […]

BVDV = BVDV antiviral assay in MDBK cells, XTT readout of inhibition of virus-induced cell killing; assay type: cell-based
Procedure: as §1
A pretitered aliquot of virus is removed from the freezer (−80° C.) and allowed to thaw slowly to room temperature in a biological safety cabinet. The virus is diluted into tissue culture medium such that the amount of virus added to each well in a volume of 100 μl will be the amount determined to give complete cell killing at 6 days post-infection.
as §2
The day following plating of cells, plates are removed from the incubator, and medium is removed and discarded. Drug dilutions are added to appropriate wells of the microtiter plate in a volume of 100 μl per well. Each dilution is set up in triplicate. Complete medium or complete medium containing appropriately diluted virus is added to appropriate wells in a volume of 100 μl per well.
The format of the test plate has been standardized. Each plate contains cell control wells (cell only), virus control wells (cells plus virus), drug toxicity control wells (cells plus drug only), drug colorimetric control wells (drug only) as well as experimental wells (drugs plus cells plus virus).
The cell viability was evaluated by a dye (XTT) uptake procedure. XTT-tetraolium is metabolized by the mitochontrial enzymes of metabolically active cells to a soluble formazan product, allowing the rapid quantitative analysis of the inhibition of virus-induced cell killing by antiviral test substances.
XTT solution was prepared daily as a stock of 1 mg/ml in PBS. Phenazine methosulfate (PMS) solution was prepared at 15 mg/ml in PVBS and stored in the dark at −20° C. STT/PMS stock was prepared immediately before use by diluting PMS 1:100 into PBS and adding 40 μl per ml of XTT solution. Fifty microliters of XTT/PMS was added to each well of the plate (each well had been loaded with 100 μl fresh medium) and the plate was reincubated for 4 hours at 37° C.
Adhesive plate sealers were used in place of the lids, the sealed plate was inverted several times to mix the soluble formazan product and the plate was read spectrophotometrically at 450 nm (XTT) with a Molecular Devices Vmax plate reader.
The efficacy and toxicity of inteferons are analyzed using a computer program (developed by Southern Research Institute) which calculates % CPE reduction, % cell viability, IC25,50 & 95, TC5,50 & 95 and other indices.
Combination effects are analyzed statistically by Prichard and Shipman method. Effects of the drug combination on efficacy and toxicity are calculated based on the activity or toxicity of the two compounds when tested alone. The expected additive inhibition rate of virus production or the expected additive cell viability rate subtracted from the experimentally determined inhibition rate or viability rate at each combination concentration results in a positive value (synergy), a negative value (antagonism), or zero (addivity).

## INF-αA: human IFN-α species A, purchased from PBL Biomedical Laboratories
[1]
  TC50: >316.00 U/ml
BVDV; BVDV in MDBK cells
  IC50: 2.54 U/ml
BVDV; Compound conc 0, INF-αA conc 0.06
  Antiviral Percentage Inhibition: 3.1%
BVDV; Compound conc 0, INF-αA conc 0.19
  Antiviral Percentage Inhibition: 0%
BVDV; Compound conc 0, INF-αA conc 0.601
  Antiviral Percentage Inhibition: 0%
BVDV; Compound conc 0, INF-αA conc 1.899
  Antiviral Percentage Inhibition: 6.3%
BVDV; Compound conc 0, INF-αA conc 6
  Antiviral Percentage Inhibition: 11.2%
BVDV; Ribavirin conc 0, INF-αA conc 0.06
  Antiviral Percentage Inhibition: 0%
BVDV; Ribavirin conc 0, INF-αA conc 0.19
  Antiviral Percentage Inhibition: 0%
BVDV; Ribavirin conc 0, INF-αA conc 0.601
  Antiviral Percentage Inhibition: 0%
BVDV; Ribavirin conc 0, INF-αA conc 1.899
  Antiviral Percentage Inhibition: 5.8%
BVDV; Ribavirin conc 0, INF-αA conc 6
  Antiviral Percentage Inhibition: 15.3%
BVDV; TC50/IC50
  TI: >124.22
BVDV; activity against BVDV / toxicity
  Comments: Active/Nontoxic
